US10369221B2, “Conjugated porphyrin carbon quantum dots for targeted photodynamic therapy” (Hong Kong Baptist University, priority 2016, dated 2019)

Tests used:
H23 cells = experiment: Targeting ability by confocal laser scanning microscope, H23 cells (low expression of EGFR); assay type: cell-based; conditions: 0.5 mg/mL, 12 hours
Experimental: (§1) Cellular uptake by cancer cells was examined using a confocal laser scanning microscope (CLSM). Cancer cells were seeded in 6-well culture plates (a sterile cover slip was put in each well) at a density of 5×10^4 cells per well and allowed to adhere for 24 h. After that, the cells were treated with porphyrin carbon quantum dots (0.5 mg/mL) for 12 h at 37° C. After that, the supernatant was carefully removed and the cells were washed three times with PBS. Subsequently, the slides were mounted and observed by confocal microscope (Zeiss Laser Scanning Confocal Microscope; LSM7 DUO) using ZEN 2009 software (Carl Zeiss).

HCC827 cells [1] = experiment: Subcellular localization with DAPI and LysoTracker Green DND-26 staining; assay type: cell-based; conditions: 12 hours incubation
Experimental: Cancer cells were cultured in Minimum Essential Medium (MEM) containing 10% fetal bovine serum and 1% antibiotics penicillin and streptomycin (P/S) and incubated at 37° C. in a humidified 5% CO2 atmosphere. Cancer cells (6×10^3 cells per well) were seeded in 96-well plates and incubated overnight at 37° C. in a humidified 5% CO2 atmosphere. After being rinsed with PBS (pH 7.4), the cells were incubated with porphyrin carbon quantum dots at a concentration of 0.5 mg/mL for 12 h at 37° C. in the dark under the same conditions. The cells were rinsed with PBS again, and stained by LysoTracker® Green DND-26 for 30 min. After the cells were fixed with 4% paraformaldehyde, DAPI (Invitrogen) was used to mount each coverslip on a glass slide for confocal laser scanning microscope (CLSM).

[2] = Zeta potential measurement; assay type: physicochemical; conditions: pH 7.0 (printed for PCQDs)
Experimental: Zeta potential is widely used as the indicator of the magnitude of the charge and the stability of nanomaterials. The zeta potential of PCQDs was recorded as −5.90 mV at pH 7.0 (FIG. 1B), due to the existence of —OH/—COOH groups on the surface of porphyrin carbon quantum dots. When Zn(II)TAP is used as passivation agent, the zeta potential changed to −7.19 mV, owing to the absence of protonation inside of ZnPCQDs. The two materials both bear negative charges, which may be responsible for the high water dispersity and solubility of porphyrin carbon quantum dots. After functionalization of PCQDs with PEG diamine, the zeta potential of NH2-PCQDs becomes 5.33 mV, indicating the loss of the carboxylic acid groups upon surface functionalization.

HCC827 cells [3] = experiment: In vitro PDT effect, CCK-8 assay, HCC827 cells; assay type: cell-based; conditions: 0-100 μg/mL
HCC827 cells [4] = experiment: Targeting ability by confocal laser scanning microscope, HCC827 cells (over-expression of EGFR); assay type: cell-based; conditions: 0.5 mg/mL, 12 hours
Experimental: as §1

HLF cells = experiment: In vitro PDT effect, CCK-8 assay, normal HLF cells; assay type: cell-based
Experimental: To compare the dark toxicity and phototoxicity of the porphyrin carbon quantum dots, the stock solutions of nanomedicines were diluted with fresh medium to various concentrations (5, 10, 20, 50 and 100 μg/mL). The cells were then incubated with these solutions at 37° C. in 5% CO2 for 4 h, and the cultures were then irradiated using a 500 W Xe lamp as the light source with an intensity of 6.5 mW/cm^2 for 0 or 30 min before removing the porphyrin carbon quantum dots solution and adding fresh medium. Subsequently, the plates were incubated at 37° C. in 5% CO2 for 24 h. The cell medium solutions were exchanged for 100 μL of fresh medium, followed by the addition of L of CCK8 solution to each well. The culture plates were then incubated at 37° C. in 5% CO2 for 4 h. The absorbance of an untreated cell population under the same experimental conditions was used as the reference point to establish 100% cell viability. The absorbance of the 96-well plates was detected by a 450 nm laser by a Plate reader (1420 Multi-label Counter Perkin Elmer).

Substance: C225-PCQDs: Cetuximab covalently bonded to NH2-PCQDs using a modified EDC-NHS reaction
- red fluorescent signals in cells (H23 cells): very weak red fluorescent signals
- subcellular localization (HCC827 cells [1]): localized primarily in the lysosomes of cells
- zeta potential [2]: 2.84 mV
- cytotoxicity after laser irradiation (HCC827 cells [3]; 24 hours exposure followed by irradiation): concentration-dependent cytotoxicity
- cells surviving without irradiation (HCC827 cells [3]; without irradiation): over 85%
- red fluorescent signals in cells (HCC827 cells [4]): strong red fluorescent signals
- cytotoxicity to normal cells with laser irradiation (HLF cells; 24 hour exposure and laser irradiation): no significant cytotoxicity
- effect on normal cells in dark or upon exposure to light (HLF cells; dark or light): no effects on normal cells
